US20140127136A1, “LIPOSOMES USEFUL FOR DRUG DELIVERY TO THE BRAIN” (Merrimack Pharmaceuticals, Inc., priority 2004, published 2014)
Structures can show the parent of a compound that is named as a salt.

Experiment: In vivo chemical stability and blood pharmacokinetics of free or liposomal CPT-11
Conditions: rats, 25 mg/kg i.v.

Q: For CCc1c2c(nc3ccc(OC(=O)N4CCC(N5CCCCC5)CC4)cc13)-c1cc3c(c(=O)n1C2)COC(=O)[C@]3(O)CC [free CPT-11, Irinotecan hydrochloride], which “conversion to SN-38 or the carboxylate form of CPT-11 in vivo” value is on record?
A: appreciable conversion to the carboxylate form of the drug
